The values that follow come from PubChem BioAssay AID449730 (The Scripps Research Institute Molecular Screening Center, 2010).

Only a part is listed here, and it is no random draw. Active and inactive are the calls of the source. Rule as the data show it: active = inhibition above about 22%; inactive = the rest.

The nature of the experiment: HEK cell viability loss – luminescence, cytotoxicity control for IDE inhibitor project (AID 449730).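 Also: 0% = vehicle wells and 100% = reference cytotoxic drug.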 Conditions: HEK293 cytotoxicity, ATP luminescence; at 5.59 µM; hits give high values.
Regarding `O=c1c2ccccc2[se]n1-c1ccccc1`, the inhibition – broadly, the percentage by which the read-out fell short of the control – was active: 45.4%.
